Here are results for one molecule from ChEMBL document CHEMBL1221395, “Synthesis, anticancer activity and mitochondrial mediated apoptosis inducing ability of 2,5-diaryloxadiazole-pyrrolobenzodiazepine conjugates” (Bioorg Med Chem, 2010).

Structures are written as SMILES.

In this experiment the test system is Calf thymus DNA. Description: Binding affinity to calf thymus DNA assessed as change in melting temperature after 18 hrs. The experiment is classed as nucleic-acid assay. The following applies: Bos taurus. The essentials: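 Thermal melting with duplex CT-DNA (100 µM in phosphate) and ligand (20 µM), added from methanol stock, [PBD]/[DNA] 1:5, in 10 mM sodium phosphate + 1 mM EDTA, pH 7.00; incubated at 37 °C for 18 h. A260 monitored while heating at 1 °C/min over 40–90 °C. Tm taken from d(A260)/dT maxima, corrected for methanol; ΔTm = Tm(DNA+ligand) − Tm(DNA alone); at least three determinations.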

For orientation: ΔTm means the change in melting temperature against a reference sample.

Regarding `COc1cc2c(cc1O)N=C[C@@H]1CCCN1C2=O`, the ΔTm was found to be 0.7 °C.
